Vif imaging: HIV Vif self-association inhibitors, primary screen, imaging, HEK293T, single point. inhibition, % at 7.49 µM. 340,000 tested, 0.35% active. HEK293T cells, Vif self-association by quenched fluorescence, 24 h; in the data active means inhibition above about 50%, passing the limit was not always enough
ARNT-TACC3 inh: disruptors of ARNT/TACC3 protein interaction, primary screen, biochemical, AlphaScreen, single concentration; Transforming acidic coiled-coil-containing protein 3 (Homo sapiens), Q9Y6A5; AlphaScreen His-ARNT PAS-B/GST-TACC3 binding, luminescence; TACC3 fragment carries E629A point mutation; inhibition, % at 9.99 µM; 390,000 tested, 0.66% active;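 active means mean inhibition of replicates at least 50% and at least half of replicates each reaching 50%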;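 further: 0% = complete ARNT plus TACC3 wells and 100% = ARNT alone without TACC3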
CAL PDZ FP-1: untagged CAL PDZ binding inhibitors, primary screen, biochemical, fluorescence polarization, HTS; Golgi-associated PDZ and coiled-coil motif-containing protein (Homo sapiens), Q9HD26; purified CAL PDZ, TMR-peptide fluorescence polarization, 1 h; inhibition, % at 24.9 µM; 300,000 tested, 0.92% active; AID 602252, 2012;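 active means mean inhibition of at least 30% with at least half of replicates also reaching 30%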;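 further: 0% = DMSO neutral control and 100% = excess unlabeled competitor peptide PRC23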
PglD inh: C. jejuni PglD acetyltransferase inhibitors, primary screen, biochemical, DTNB colorimetric, single point | UDP-N-acetylbacillosamine N-acetyltransferase PglD (Campylobacter jejuni) | purified PglD enzyme, DTNB colorimetric CoA detection | inhibition, % at 12.5 µM | 360,000 tested, 0.098% active; in the data active means inhibition above about 16%, passing the limit was not always enough
UUG fidelity: yeast start codon fidelity modulation; AID 602363; activity score, % at 18.7 µM; S. cerevisiae UUG-firefly luciferase reporter, luminescence/redox ratio; 0.13% of 350,000 active;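 active means replicate mean at a twofold rise or more, about +100% in these data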;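 further: firefly luciferase made from a UUG start codon reports start codon fidelity; reporter light over untreated wells divided by growth signal over untreated wells; some hits fall short of that in this replicate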
CAL PDZ FP-2: CAL PDZ peptide-binding inhibitors, primary screen, biochemical, fluorescence polarization, Cer-tagged CAL PDZ, HTS; Golgi-associated PDZ and coiled-coil motif-containing protein (Homo sapiens), Q9HD26; purified CAL PDZ, TMR-peptide fluorescence polarization, 1 h; inhibition, % at 20 µM; 330,000 tested, 0.02% active;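 active means highest replicate inhibition of at least 40%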;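 further: plate controls were DMSO neutral control wells for no effect and unlabeled competitor peptide control wells for full effect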
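Material – purified CerCALP PDZ construct · Detection – FP readout, S and P plane fluorescence · Measure – percent inhibition from loss of millipolarization · Controls – unlabelled peptide for full inhibition, DMSO wells as neutral · Probe or stimulus – TMR-labelled reporter peptide T*-PRC34 bound in PDZ groove · Times – 1 h at RT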
Starred values were filed as active, the others as inactive; · = no result; + = active, no number; ! = a repeat was not active. A selection: hits, their analogues and other compounds. The true share with any hit is near 1.6%.

The line under a structure holds: CAL PDZ FP-2	Vif imaging	PglD inh	CAL PDZ FP-1	UUG fidelity	ARNT-TACC3 inh
Cc1nc2ncccn2c1-c1csc(Nc2ccccc2)n1
    -2	-2	·	0	·	58*
CC(C)CC#Cc1cnc2c(c1)C(=O)N([C@H](C)CO)C[C@@H](C)[C@H](CN(C)C(=O)Cc1ccncc1)O2
    ·	·	2	·	-5	4
C[C@H]1CN([C@@H](C)CO)C(=O)c2cccc(NC(=O)c3cnccn3)c2O[C@H]1CN(C)S(=O)(=O)c1cccs1
    ·	·	1	·	-8	-5
C/C=C/c1ccc2c(c1)O[C@@H](CN(C)Cc1ccncc1)[C@H](C)CN([C@@H](C)CO)S2(=O)=O
    ·	·	-5	·	-11	-9
O=C(N/N=C/c1ccc(Sc2ccccn2)o1)c1cc2ccccc2cc1O
    -3	-8	-2	·	-18	4
O=C(CCc1ccccc1O)N/N=C/c1ccc(Sc2cccc3cccnc23)o1
    -2	-11	3	-4	-15	66*
CN(C)CCCNC(=O)C[C@H]1CC[C@H](NC(=O)c2ccccc2F)[C@@H](CO)O1
    ·	·	-6	·	-25	1
Cc1[nH]c(=O)[nH]c(=O)c1/C=N/NC(=O)[C@H](C)N
    -2	-1	-9	-3	-1	47*
CC(C)[C@H](NC(=O)OC(C)(C)C)C(=O)N/N=C/c1ccc2nccnc2c1
    -1	-6	·	70*	·	-2
Cc1[nH]c(=O)[nH]c(=O)c1/C=N/NC(=O)CCNC(=O)OC(C)(C)C
    0	2	1	2	-17	12
Cc1[nH]c(=O)[nH]c(=O)c1/C=N/NC(=O)[C@@H](NC(=O)OC(C)(C)C)C(C)C
    0	0	-7	-3	3	47*
CC(C)[C@@H](N)C(=O)N/N=C/c1ccc2nccnc2c1
    -1	-2	·	1	·	3
O=C(CCN1CCCCC1)N[C@@H]1CC[C@H](CCn2cc(-c3ccc(F)cc3)nn2)O[C@@H]1CO
    ·	·	4	·	-2	-4
C[C@H]1CN([C@@H](C)CO)S(=O)(=O)c2ccc(-c3cccnc3)cc2O[C@H]1CN(C)C(=O)c1ccc2c(c1)OCO2
    ·	·	3	·	6	-4
CC1(C)Oc2ccc3ccc(=O)oc3c2/C(=C/NNC(N)=S)C1=O
    1	0	1	-6	-27	75*
CN/C=C1\C(=O)C(C)(C)Oc2ccc3ccc(=O)oc3c21
    1	-2	4	-1	13	4
CCOc1ccc2nc(N(CCN(CC)CC)C(=O)/C=C/c3cccs3)sc2c1
    -1	-4	0	31*	-3	-3
O=C(Nc1ccc(C(F)(F)F)cc1)N[C@@H]1C=C[C@@H](CC(=O)N2CCCCC2)O[C@H]1CO
    ·	·	0	·	-10	46*
Cn1c(SSc2ccc(-c3cccnc3)n2C)ccc1-c1cccnc1
    -1	-4	1	-4	6	17*
COc1ccc(NC(=O)Nc2ccc3c(c2)C(=O)N([C@H](C)CO)C[C@@H](C)[C@H](CN(C)S(=O)(=O)c2ccc(Cl)cc2)OCCCC[C@@H](C)O3)cc1
    ·	·	-45	·	7	-1

Looked up one by one from the entries so far:
The line under a structure holds: CAL PDZ FP-2	Vif imaging	PglD inh	CAL PDZ FP-1	UUG fidelity	ARNT-TACC3 inh
Cc1[nH]c(=O)[nH]c(=O)c1/C=N/NC(=O)CCNC(=O)OC(C)(C)C
    0	2	1	2	-17	12
C[C@H]1CN([C@@H](C)CO)C(=O)c2cccc(NC(=O)c3cnccn3)c2O[C@H]1CN(C)S(=O)(=O)c1cccs1
    ·	·	1	·	-8	-5

(continued)
The line under a structure holds: CAL PDZ FP-2	Vif imaging	PglD inh	CAL PDZ FP-1	UUG fidelity	ARNT-TACC3 inh
CC(=O)N(c1ccc(C)cc1)S(=O)(=O)c1ccc(Cl)cc1
    -1	2	·	46*	·	-3
c1ccc(-c2ccccn2)nc1
    0	-6	-2	-2	-16	-3
Nn1c(-c2ccccn2)nnc1-c1ccccn1
    -3	16	3	1	-22	79*
C=CCn1c(SCC(=O)O)nc2sc(CC)cc2c1=O
    1	16	·	·	·	-15
C=CCn1c(SCC(=O)/C(C#N)=C(\C)N)nc2sc(CC)cc2c1=O
    0	3	-6	40*!	4	0
COc1cc(Cl)c(C)cc1NC(=O)CN1C(=O)C2CC=CCC2C1=O (stereo not drawn)
    -1	59*	1	-1	7	4
CCOC(=O)c1cc2occc2n1CC(=O)Nc1ccc(OC)cc1OC
    1	-2	-1	2	-18	1
CCOC(=O)c1cc2occc2n1CC(=O)N1CCOCC1
    -2	60*	-2	-2	-19	2
Cc1cc(Cl)c(C)c(S(=O)(=O)Oc2ccccc2NC(=O)CCC(=O)O)c1Cl
    0	-10	-5	0	-8	28*
COc1ccccc1NC(=O)CCC(=O)O
    -1	-9	-10	0	-1	-4
N#Cc1ccc(COC(=O)c2cnc(Cl)c(Cl)c2)cc1
    -1	5	0	48*	-7	1
CCOC(=O)C1=C(C)N=c2s/c(=C/c3cccc([N+](=O)[O-])c3O)c(=O)n2C1c1ccccc1 (stereo not drawn)
    0	-3	1	-2	-9	60*
CCOC(=O)C1=C(C)N=c2s/c(=C/c3cccc([N+](=O)[O-])c3O)c(=O)n2C1c1cc(OC)c(OC)c(OC)c1 (stereo not drawn)
    ·	-8	-2	0	6	74*
CCOC(=O)C1=C(C)N=c2s/c(=C\c3cccn3C)c(=O)n2C1c1cccc(OC)c1OC (stereo not drawn)
    0	-2	-14	-3	10	18
Cc1cc(C(=O)NCc2ccc3c(c2)OCO3)ccc1[N+](=O)[O-]
    ·	6	-4	69*	-13	-17
O=C(NCc1ccc2c(c1)OCO2)c1ccc(Cl)nc1
    0	-4	·	99*	·	-2
O=C(NCc1ccc2c(c1)OCO2)c1ccc2c(c1)OCO2
    -2	-7	-1	3	-13	-1
C[C@H](CO)N1C[C@H](C)[C@H](CN(C)Cc2ccccc2)Oc2ncc(/C=C/c3ccccc3)cc2C1=O
    ·	·	2	·	7	-1
O=C(O)CCN1C(=O)/C(=C\c2ccc(-c3nc4ccccc4s3)o2)SC1=S
    7	33	-8	·	-5	67*
O=C(O)CCCN1C(=O)/C(=C\c2ccco2)SC1=S
    -1	0	·	-3	·	3

3 entries out of the list above, ordered by their value in PglD inh, ascending:
SMILES,CAL PDZ FP-2,Vif imaging,PglD inh,CAL PDZ FP-1,UUG fidelity,ARNT-TACC3 inh
CCOC(=O)C1=C(C)N=c2s/c(=C\c3cccn3C)c(=O)n2C1c1cccc(OC)c1OC (stereo not drawn),0,-2,-14,-3,10,18
CCOC(=O)C1=C(C)N=c2s/c(=C/c3cccc([N+](=O)[O-])c3O)c(=O)n2C1c1cc(OC)c(OC)c(OC)c1 (stereo not drawn),·,-8,-2,0,6,74*
CCOC(=O)c1cc2occc2n1CC(=O)Nc1ccc(OC)cc1OC,1,-2,-1,2,-18,1

Remaining list, next part.
The line under a structure holds: CAL PDZ FP-2	Vif imaging	PglD inh	CAL PDZ FP-1	UUG fidelity	ARNT-TACC3 inh
C[C@@H]1CN([C@H](C)CO)C(=O)c2cccc(NS(=O)(=O)c3cn(C)cn3)c2O[C@H]1CN(C)C
    ·	·	-1	·	7	0
Nc1cc[n+](CC(=O)c2ccc3c(c2)OCCO3)cc1
    0	82*	-1	3	-19	-4
O=C(C[n+]1ccc(C(=O)NCc2ccccc2)cc1)c1ccc2c(c1)OCCO2
    0	-3	·	-3	·	6
COC(=O)c1ccc(NC(=O)c2ccc(NC(=O)C3CCCO3)cc2)cc1 (stereo not drawn)
    -1	3	·	+	·	-5

Screens: PubChem BioAssay, Broad Institute
